Protein sequences, listed by entry. Tags and fused reporters are not part of them. Residues count along the entry.
UniProt P02786, whole entry: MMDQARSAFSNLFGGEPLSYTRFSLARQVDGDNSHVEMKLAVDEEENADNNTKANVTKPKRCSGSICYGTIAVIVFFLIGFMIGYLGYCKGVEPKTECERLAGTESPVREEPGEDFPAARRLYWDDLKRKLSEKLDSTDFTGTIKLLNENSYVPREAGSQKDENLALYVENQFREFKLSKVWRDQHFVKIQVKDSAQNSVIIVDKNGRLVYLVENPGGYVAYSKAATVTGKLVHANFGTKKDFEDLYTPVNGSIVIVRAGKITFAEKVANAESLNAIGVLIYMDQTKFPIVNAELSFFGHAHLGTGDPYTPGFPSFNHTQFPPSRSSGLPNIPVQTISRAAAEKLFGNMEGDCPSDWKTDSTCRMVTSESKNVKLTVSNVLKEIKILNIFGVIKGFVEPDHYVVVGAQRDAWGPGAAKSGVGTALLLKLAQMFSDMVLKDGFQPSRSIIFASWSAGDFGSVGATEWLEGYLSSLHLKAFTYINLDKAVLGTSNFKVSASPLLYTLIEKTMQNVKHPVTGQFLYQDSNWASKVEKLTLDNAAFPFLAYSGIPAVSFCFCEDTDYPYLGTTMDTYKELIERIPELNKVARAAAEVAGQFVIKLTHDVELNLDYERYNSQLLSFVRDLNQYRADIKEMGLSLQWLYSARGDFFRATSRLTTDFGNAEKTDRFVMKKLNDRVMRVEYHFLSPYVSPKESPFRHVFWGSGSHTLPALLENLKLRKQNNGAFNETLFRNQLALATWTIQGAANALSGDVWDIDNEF
UniProt P02786, 89-760: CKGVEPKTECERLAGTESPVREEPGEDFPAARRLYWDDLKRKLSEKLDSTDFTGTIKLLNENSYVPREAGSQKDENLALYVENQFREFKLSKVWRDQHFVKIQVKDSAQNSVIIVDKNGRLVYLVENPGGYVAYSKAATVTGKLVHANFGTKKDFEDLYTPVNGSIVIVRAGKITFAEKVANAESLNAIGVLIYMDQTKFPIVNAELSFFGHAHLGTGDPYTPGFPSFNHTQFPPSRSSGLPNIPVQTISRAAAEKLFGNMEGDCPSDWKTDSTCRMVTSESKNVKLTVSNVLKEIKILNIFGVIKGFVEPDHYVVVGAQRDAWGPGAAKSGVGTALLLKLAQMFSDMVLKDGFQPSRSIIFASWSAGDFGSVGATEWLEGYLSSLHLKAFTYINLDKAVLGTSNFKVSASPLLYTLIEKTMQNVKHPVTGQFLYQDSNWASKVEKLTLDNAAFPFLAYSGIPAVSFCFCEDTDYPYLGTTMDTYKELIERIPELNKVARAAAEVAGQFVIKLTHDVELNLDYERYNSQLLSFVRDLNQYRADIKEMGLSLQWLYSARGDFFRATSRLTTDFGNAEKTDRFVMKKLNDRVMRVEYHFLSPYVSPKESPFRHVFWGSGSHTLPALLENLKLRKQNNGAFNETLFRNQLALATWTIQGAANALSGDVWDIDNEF

According to patent publication US20240391959A1, “BICYCLIC PEPTIDE LIGANDS […] FOR TRANSFERRIN RECEPTOR 1 (TfR1)” (BicycleTx Limited, priority 2020, published 2024):

Experiments:
human TfR1 [1] = biological target: T1, human TfR1 (Homo sapiens, UniProt P02786); assay: TfR1 inhibition assay (Alpha assay, transferrin inhibition); type: binding
Description: TfR1 inhibitory activity of peptides of the invention (IC50) was determined using Alpha assay, in accordance with the following method. Proteins, peptides and Alpha reagents were prepared to 5× concentration and 5 μl of each reagent added to 25 μl total volume in white 384-well Optiplate to make 1× final concentration. Fluorescently labelled human transferrin (Invitrogen, T2871) was diluted to 2.5 nM in 25 mM HEPES with 100 mM NaCl, 4 mM CaCl2, 0.5% BSA and 0.05% P20, pH 7.4. Human or cynomolgus TfR1 protein was diluted to 50 nM and unlabelled human transferrin (R&D Systems, 2914-HT) was diluted to 500 nM in the same assay buffer. Non-labelled peptides from DMSO stock were diluted 20-fold in the same assay buffer, followed by 1 in 3 serial dilution in assay buffer containing 5% DMSO to give 11-different concentrations. 5 μl fluorescently labelled transferrin, 5 μl human or cynomolgus TfR1, 5 μl non-labelled peptide or unlabelled human transferrin (R&D Systems, 2914-HT) were added to white 384-well Optiplate and incubated for 30 min. Anti-FITC Acceptor (PerkinElmer, AL127) was diluted 50-fold in assay buffer, 5 μl added to assay plate and incubated for 30 min. […] Luminescence measurements were conducted on a BMG PHERAstar FS or FSX equipped with an AlphaScreen 520-620 module at 25° C. following excitation at 680 nm. […]

human TfR1 [2] = biological target: T1, human TfR1; assay: biochemical; type: binding; design: His6-tagged TfR1 (a.a. 89-760) (ACRO Biosystems, CD1-H5243 and TFR-C524a); His6; purchased R&D Systems or Acro Biosystems 2474-TR or CD1-H5243

Compound | IC50 (human TfR1 [1]) [µM] | Kd (human TfR1 [2]) [µM]
CC(C)C[C@@H]1NC(=O)[C@@H](NC(=O)[C@H](C)N)CSCCC(=O)N2CN3CN(C2)C(=O)CCSC[C@@H](C(=O)N[C@@H](C)C(N)=O)NC(=O)[C@H](CO)NC(=O)[C@H](Cc2ccc(O)cc2)NC(=O)[C@H](Cc2c[nH]c4ccccc24)NC(=O)[C@H](Cc2ccc(O)cc2)NC(=O)[C@H](C(C)C)NC(=O)CNC(=O)[C@H](CC(=O)O)NC(=O)[C@H](Cc2ccc(O)cc2)NC(=O)[C@H](CSCCC3=O)NC(=O)[C@H](C)NC(=O)[C@H](CCC(=O)O)NC1=O [BCY12454, A-(SEQ ID NO: 3)-A] | 0.893 | 
CC(C)C[C@@H]1NC(=O)[C@H](C)NC(=O)[C@@H](NC(=O)[C@H](C)N)CSCCC(=O)N2CN3CN(C2)C(=O)CCSC[C@H](NC1=O)C(=O)N[C@@H](CC(N)=O)C(=O)N[C@@H](CC(=O)O)C(=O)N[C@@H](Cc1c[nH]c2ccccc12)C(=O)N[C@@H]([C@@H](C)O)C(=O)N[C@@H](CC(C)C)C(=O)N1CCC[C@H]1C(=O)N[C@@H](Cc1c[nH]c2ccccc12)C(=O)N[C@@H](Cc1c[nH]cn1)C(=O)N[C@@H](Cc1c[nH]cn1)C(=O)N[C@H](C(=O)N[C@@H](C)C(N)=O)CSCCC3=O [BCY12455, A-(SEQ ID NO: 1)-A] | 0.673 | 
CC(=O)N[C@H]1CSCCC(=O)N2CN3CN(C2)C(=O)CCSC[C@H](NC(=O)CNC(=O)[C@H](CC(C)C)NC(=O)[C@H](Cc2ccc(O)cc2)NC(=O)[C@H](C)NC(=O)[C@H](CC(=O)O)NC(=O)[C@@H]2C[C@@H](O)CN2C(=O)[C@@H]2CCCN2C1=O)C(=O)N[C@@H](C(C)(C)C)C(=O)N[C@@H](CO)C(=O)N[C@@H](Cc1ccc(O)cc1)C(=O)N[C@H](C(N)=O)CSCCC3=O [BCY20546, Ac-(SEQ ID NO: 13)] |  | 1.66
